Columns and labels:
[1] = molecular target: human glucagon receptor (human) (UniProt P47871); assay: cell-based or functional assay
[2] = molecular target: human glucagon-like peptide 1 receptor (human) (UniProt P43220); assay: cell-based or functional assay

- GLUR EC50 (nM), cAMP formation in HEK293 cells expressing human Glucagon-R [1]: > 1000 nM
- GLP-1R EC50 (nM), cAMP formation in HEK293 cells expressing human GLP-1-R [2]: 0.02 nM
Substance: Exendin-4 (from UniProt P26349) (peptide)
